Experimental findings from US9273099 (Dana-Farber, dated 2016) are described below.

Chains of the proteins cited; added tags and fusions are not shown. Lines headed by an entry give the natural chain unless they say otherwise; changes in a name come on top.
UniProt P55957: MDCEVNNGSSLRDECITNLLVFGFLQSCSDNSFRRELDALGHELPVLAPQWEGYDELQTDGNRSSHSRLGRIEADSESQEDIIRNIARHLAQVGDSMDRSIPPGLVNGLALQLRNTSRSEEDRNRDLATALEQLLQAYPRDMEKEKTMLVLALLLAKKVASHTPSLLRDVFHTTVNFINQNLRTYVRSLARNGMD

In assay [1] the target is C-terminal deleted GST-BCL-2 (UniProt P10415). The experiment in a line: fluorescence polarization, displacement of prebound FITC-BID BH3 from BCL-2. A general note: In fluorescence polarisation assays a small probe gives low polarisation when free and higher when bound to something large.
Assay [2] has the same target. The experiment in a line: direct fluorescence polarization, 25 nM fluoresceinated peptide with GST-BCL2 25-1000 nM.

The IC50 is the concentration that gives 50% inhibition. Low readings indicate higher potency, high ones lower potency. What is called Kd is the free concentration of one partner at which half of the binding sites on the other are occupied at equilibrium, for simple one-to-one binding.

As to “unlabeled unmodified BID BH3 peptide (from UniProt P55957 80-101)”, the IC50 in assay [1] came to 0.838 µM.

B1: FITC-labeled unmodified BID BH3 peptide (peptide, UniProt P55957 80-101, looked up)
peptide: EDIIRNIARHLAQVGDSMDRSI
modifications: amino terminus derivatized with b-alanine and fluorescein isothiocyanate (FITC)
For the molecule B1, the Kd in assay [2] is 0.269 µM. This lies in the sub-micromolar range.
